Biological target: T1, opioid δ receptor (Rattus norvegicus, UniProt P33533)
T1 construct: A membrane fraction of opioid δ receptor was prepared from the rat forebrain; from tissue; host or cells: rat forebrain membrane fraction
Assay: Binding affinity for opioid δ receptor ([3H]-Naltrindole binding experiment)
Details: membrane fraction from rat forebrain; [3H]-Naltrindole 1 nM; 25° C., 90 minutes; Ki calculated from IC50 by Cheng-Prusoff equation

| Compound | Ki [nM] |
| --- | --- |
| CC(C)N(C(=O)c1ccc(Cc2ccccc2OCCN2CCC3(CC2)C(=O)NCN3c2ccccc2)cc1)C(C)C [Example 32, 8-[2-[2-(4-Diisopropylcarbamoylbenzyl)phenoxy]ethyl]-1-phenyl-1,3,8-triazaspiro[4,5]decan-4-one] | 517 |
| CCC(C)C(=O)c1ccc(Cc2ccccc2OCCN2CCC(n3c(CO)nc4ccccc43)CC2)cc1 (stereo not drawn) [Example 110, 4-(2-Hydroxymethyl-1H-benzimidazol-1-yl)-1-[2-[2-[4-(2-methylbutyryl)benzyl]phenoxy]ethyl]piperidine] | 88 |
| CCN(CC)C(=O)c1ccc(Cc2ccccc2OCCN2CCC(C(C)=O)(c3ccccc3)CC2)cc1 [Example 49, 4-Acetyl-1-[2-[2-(4-diethylcarbamoylbenzyl)phenoxy]ethyl]-4-phenylpiperidine] | 943 |
| CC(C)COC(=O)c1ccc(Cc2ccccc2OCCN2CCC(n3c(CO)nc4ccccc43)CC2)cc1 [Example 103, 1-[2-[2-(4-Isobutyloxycarbonylbenzyl)phenoxy]ethyl]-4-(2-hydroxymethyl-1H-benzimidazol-1-yl)piperidine] | 73 |
| O=C(c1ccc(Cc2ccccc2OCCN2CCC(n3c(=O)[nH]c4ccccc43)CC2)cc1)N1CCCC1 [Example 15, 4-(1,3-Dihydro-2H-benzimidazol-2-on-1-yl)-1-[2-[2-(4-pyrrolidinocarbonyl-benzyl)phenoxy]ethyl]piperidine] | 281 |
| CCN(CC)C(=O)c1ccc(Cc2ccccc2OCCN2CCC3(CC2)C(=O)N(C)CN3c2ccccc2)cc1 [Example 36, 8-[2-[2-(4-Diethylcarbamoylbenzyl)phenoxy]ethyl]-3-methyl-1-phenyl-1,3,8-triazaspiro[4,5]decan-4-one] | 240 |

Source: patent publication US6916822B2, “Phenoxyalkylamine derivatives useful as opioid δ receptor agonists” (Meiji Seika Kaisha, Ltd., priority 2000, dated 2005)
